Data reported in US20260374766A1, “METHODS FOR TREATING CANCER” (Antares Therapeutics, Inc., priority 2022, published 2026).

By UniProt entry, the sequences of proteins in these tests, tags left out. Where a name states a change or a piece, a line headed by the entry shows the natural chain unless it says otherwise.
UniProt P04637: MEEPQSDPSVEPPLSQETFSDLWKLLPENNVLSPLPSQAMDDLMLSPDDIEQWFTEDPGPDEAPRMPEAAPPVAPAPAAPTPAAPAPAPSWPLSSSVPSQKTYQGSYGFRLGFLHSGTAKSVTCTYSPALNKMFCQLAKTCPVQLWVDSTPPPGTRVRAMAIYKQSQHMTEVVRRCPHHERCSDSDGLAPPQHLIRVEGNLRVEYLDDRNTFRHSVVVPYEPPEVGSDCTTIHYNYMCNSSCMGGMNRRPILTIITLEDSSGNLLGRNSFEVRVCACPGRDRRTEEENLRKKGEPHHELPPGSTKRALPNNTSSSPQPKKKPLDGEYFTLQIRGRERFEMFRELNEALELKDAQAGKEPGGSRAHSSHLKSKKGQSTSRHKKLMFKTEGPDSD

What was measured:
p53 Y220C = p53 Y220C (Homo sapiens, UniProt P04637, Y220C); test: Luciferase Reporter Assay (Luc), p53 response element, NClH1299 cells with inducible p53 Y220C; assay type: cell-based; settings: 6 hour
Protocol: Luciferase Reporter Assay Protocol
Luciferase reporter (Luc) driven by p53 response element (LTV-p53-Luc (SKU #: LTLR007); G&P Biosciences) and inducible p53 Y220C construct (Tet-One inducible expression system; Takara) were stably expressed in NClH1299 cells by lentiviral transduction. The cells were then used for p53 reporter assay. 5,000 cells were seeded in each well of 384 plate and cultured in 0.5 ug/mL doxycycline (D3072; Sigma) containing medium for 24 hours before compound treatment. After 6 hour of compound treatment, equal volume of One-Glo reagent (E6110; Promega) was added to each well and the plate was incubated for 5 minutes with shaking at room temperature. The luciferase activity was immediately measured with PheraStar microplate reader. Luciferase activity was stimulated by 10 uM of a tool compound as positive control and AC50 was calculated.

[1] = target: T1, p53 Y220C mutant protein (amino acid residues 94-293) (Homo sapiens, UniProt P04637, Y220C); test: Surface Plasmon Resonance (SPR) assay, Kd_kinetic; assay type: binding; settings: read-out: SPR P53 Y220C KD kinetic
T1 construct: p53 Y220C mutant protein (amino acid residues 94-293)
Protocol: Surface Plasmon Resonance (SPR) Assay Protocol
SPR experiments were performed on a Biacore 8K instrument. […] The running buffer contained 50 mM Tris, pH 7.5, 100 mM NaCl, 1 mM DTT, 0.01% Brij35, 0.05% Tween-20 and 1% DMSO. The assay temperature was maintained at 16 or 20 °C and data were fit into the 1:1 binding model using the Biacore Insight Evaluation software.

Row | AC50 (p53 Y220C) | Kd [1] | Compound
1 | 1500 to 3000 nM | 10 to 100 nM | CNC(=O)c1ccc(NCC#Cc2nc3c(N[C@@H]4C[C@H]5COC[C@H](N5)[C@@H]4F)cccn3c2SC(F)(F)F)c(OC)c1 (relative stereo) [Example 251, rel-4-{[3-(8-{[(1R,5R,6S,7S)-6-fluoro-3-oxa-9-azabicyclo [3.3.1]nonan-7-yl]amino}-3-[(trifluoromethyl)sulfanyl]imidazo[1,2-a]pyridin-2-yl)prop-2-yn-1-yl]amino}-3-methoxy-N-methylbenzamide]
2 | < 750 nM |  | CNC(=O)c1ccc(NCC#Cc2nc3c(N[C@@H]4C[C@@H]5COC[C@@H](N5)[C@@H]4F)cccn3c2SC(F)(F)F)c(OC)c1 (relative stereo) [Example 329]
3 | > 3000 nM | 10 to 100 nM | CNC(=O)c1ccc(NCC#Cc2nc3c(N[C@H]4C[C@@H]5COC[C@@H](N5)[C@H]4F)cccn3c2SC(F)(F)F)c(OC)c1 [Example 279]
4 | 1500 to 3000 nM |  | CNC(=O)c1ccc(NCC#Cc2nc3c(N[C@H]4C[C@H]5COC[C@H](N5)[C@H]4F)cccn3c2SC(F)(F)F)c(OC)c1 [Example 281]
